# Earlier results, collected in patent US7498300B2, “CRFR1 selective ligands” (The Salk Institute for Biological Studies, priority 2001, dated 2009).
# Molecular target: T1, CRFR1 (Rattus norvegicus, UniProt P35353)
# T1 sequence (P35353 24-415): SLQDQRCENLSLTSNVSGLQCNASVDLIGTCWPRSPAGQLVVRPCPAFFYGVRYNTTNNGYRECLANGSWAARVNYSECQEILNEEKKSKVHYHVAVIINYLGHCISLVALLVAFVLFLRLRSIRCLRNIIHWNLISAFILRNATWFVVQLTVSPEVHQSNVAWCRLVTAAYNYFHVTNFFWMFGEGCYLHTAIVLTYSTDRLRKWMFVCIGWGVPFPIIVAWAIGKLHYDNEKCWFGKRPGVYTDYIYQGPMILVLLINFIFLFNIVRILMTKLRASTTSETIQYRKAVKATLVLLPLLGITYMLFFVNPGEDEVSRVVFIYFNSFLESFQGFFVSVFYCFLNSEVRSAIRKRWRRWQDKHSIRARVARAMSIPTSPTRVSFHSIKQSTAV
# Conditions: Ruhmann et al., P.N.A.S. 95, 15264-15269 (1998); cited from earlier work
substance,measurement,value
"[D-Phe^11, His^12]-sauvagine(11-40)",competitive antagonism for CRFR1 relative to the then best antagonist,about 30%
